Test results taken from patent publication US10166239B2, “Tropomyosin-related kinase (Trk) inhibitors” (Genzyme Corporation, priority 2013, dated 2019).

Chains of the proteins cited; added tags and fusions are not shown. Residues count along the entry.
UniProt P04629, 33-796: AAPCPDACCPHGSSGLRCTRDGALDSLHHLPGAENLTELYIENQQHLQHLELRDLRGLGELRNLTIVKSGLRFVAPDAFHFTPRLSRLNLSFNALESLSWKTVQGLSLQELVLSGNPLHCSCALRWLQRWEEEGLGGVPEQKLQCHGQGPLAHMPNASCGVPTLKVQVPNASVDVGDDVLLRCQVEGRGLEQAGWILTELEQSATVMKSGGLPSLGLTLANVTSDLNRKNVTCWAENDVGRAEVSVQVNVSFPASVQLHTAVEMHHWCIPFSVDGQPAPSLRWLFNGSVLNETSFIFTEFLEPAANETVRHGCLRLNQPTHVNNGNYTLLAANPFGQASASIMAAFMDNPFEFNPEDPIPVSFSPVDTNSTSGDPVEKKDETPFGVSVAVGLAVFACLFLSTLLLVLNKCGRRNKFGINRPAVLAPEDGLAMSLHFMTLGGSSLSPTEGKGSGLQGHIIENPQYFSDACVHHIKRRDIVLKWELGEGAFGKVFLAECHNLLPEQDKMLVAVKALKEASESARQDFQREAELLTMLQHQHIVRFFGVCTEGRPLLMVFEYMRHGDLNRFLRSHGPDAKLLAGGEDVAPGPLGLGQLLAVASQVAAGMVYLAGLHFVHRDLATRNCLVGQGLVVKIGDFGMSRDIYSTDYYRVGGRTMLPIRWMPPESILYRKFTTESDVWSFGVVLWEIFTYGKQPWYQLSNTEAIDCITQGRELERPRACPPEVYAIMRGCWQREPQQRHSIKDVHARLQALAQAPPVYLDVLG

Biological target: TrkA (Homo sapiens (Human), UniProt P04629)
Assay: TrkA activity, off-chip mobility shift assay
Type: biochemical
Conditions: 200 pM TrkA, 55 μM ATP (ATP Km), 180 minutes
Excerpt: Reagents and consumables were purchased from Sigma Aldrich, Carna Biosciences, or Caliper Life Sciences. All assay reaction conditions for IC50 determinations were within the linear range with respect to time and enzyme concentration. […] The LabChip 3000 separates and measures the fluorescent signal of fluorescein labeled peptide substrate and fluorescein labeled peptide product present in each well. Results are expressed as percent conversion by measuring peak height for both the substrate and product and dividing the product peak height by the sum of peak heights for both substrate and product.

Q: Which IC50 does the source give for `CCOc1cc(Cn2cnc3cc(N4CCN(C)CC4)cnc32)ccc1OCc1ccc(OC)nc1` [Ex. 3-28, 3-(3-Ethoxy-4-((6-methoxypyridin-3-yl)methoxy)benzyl)-6-(4-methylpiperazin-1-yl)-3H-imidazo[4,5-b]pyridine] here?
A: 337 nM
